Consider one compound from ChEMBL document CHEMBL4433206, “Novel Lysine-Based Thioureas as Mechanism-Based Inhibitors of Sirtuin 2 (SIRT2) with Anticancer Activity in a Colorectal Cancer Murine Model” (J Med Chem, 2019).

The data set has as its system CCD-841CoN. Kind of data set: Growth inhibition of human CCD-841-CoN cells after 72 hrs by CellTiter-Blue assay. Type of data set: cell-based. The gist of the method:
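CCD 841 CoN normal colon cells grown in DMEM with 10% FBS at 37 °C, 5% CO2. 3000 cells/well seeded, 20 h at 37 °C. Inhibitor added at final 1–100 μM, then 72 h at 37 °C. Viability read by CellTiter-Blue after 4 h at 37 °C, fluorescence 560 nm excitation/590 nm emission. GI50 derived.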

Turning to `CCCCCCCCNC(=S)NCCCC[C@H](NC(=O)OCc1ccccc1)C(=O)Nc1ccccc1`, the GI50 is 137 µM.
